# Measured affinities in a library of Ab-14 heavy chain variants

Target peptide (SARS-CoV-2 spike, HR2 region): PDVDLGDISGINAS

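Phage display of a naive human antibody library on the peptide gave the parent. This is the validation round: designs drawn from the data on random variants, tested in the same kind of assay. Their group label is 14H_GP_Gibbs (GP: Gaussian process model; Gibbs: Gibbs sampling; a sequence that several methods proposed may carry one label only). The scFvs were displayed on barcoded MATa yeast, the peptide on MATalpha yeast. The frequency of each diploid, read from paired DNA barcodes, reflects how well the two displayed proteins bind. Read counts were normalised to the haploid input and turned into Kd by a linear fit to BCL2-family pairs of known affinity, for each replicate. Each pool was mated in six replicate cultures.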

The variants keep the light chain, the linker and the frameworks of Ab-14 (scFv order VH, a 15-residue (Gly4Ser)3 linker, VL).
VH: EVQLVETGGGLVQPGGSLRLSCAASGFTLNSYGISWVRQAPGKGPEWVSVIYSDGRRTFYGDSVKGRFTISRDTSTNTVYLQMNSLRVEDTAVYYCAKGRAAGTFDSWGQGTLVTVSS
VL: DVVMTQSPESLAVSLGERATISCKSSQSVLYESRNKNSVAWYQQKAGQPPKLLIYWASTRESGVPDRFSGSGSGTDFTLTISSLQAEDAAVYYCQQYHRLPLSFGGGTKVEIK

Variants are written as CDR1, CDR2 and CDR3 of the heavy chain (limits as in the source). Parent: GFTLNSYGIS, VIYSDGRRTFYGDSVK, GRAAGTFDS.
The read-out is the apparent dissociation constant on a log10 scale (nM): the lower, the stronger.
The mean shown is taken over the replicates in which the pair was detected.
An entry "nd" has no value in the source: the pair was not observed among the diploids in that replicate. This suggests poor binding but is not conclusive.
Of ten entries with the parent sequence, four were seen in most replicates (averages 0.34 to 2.37), three in one and three in none, so single entries are noisy.

CDR-H1,CDR-H2,CDR-H3,"log10 Kd, replicates",mean log10 Kd (nM),control signals
MFSLNEYGIS,VIYSDGRRTFYGDSVK,GRQAGTFDS,nd 0.98 nd nd 1.50 0.89,1.12,0 of 18
GFTLESYGIS,VIYSDGRRTFYGDAVK,GWTAGTFDS,nd 1.87 0.76 1.56 0.93 1.13,1.25,0 of 18
GFDLNSYGIS,VIYSDGRRTFYQDRVK,GRIAGTFDS,nd 1.02 1.21 nd nd nd,1.12,0 of 18
GFDLNSYGIS,VIYSDGRRTFYADSVK,GQAAGTFDF,0.66 1.00 0.79 1.02 0.87 0.71,0.84,2 of 18 (2.49)
MFDLNSYGIS,VIYSDGRRTFYGDSVK,GEAAGTFDK,1.51 0.61 0.96 1.27 0.25 0.68,0.88,0 of 18
GFSLNSYGIS,VIYSDGRRTFYGDNVK,GQTAGTFDA,0.62 0.23 0.26 0.34 0.07 0.46,0.33,0 of 18
SFELNSYGIS,VIYSDGRRTFYADSVK,GQTAGTFDS,nd nd 1.39 0.69 1.55 1.32,1.24,0 of 18
GFDLNSYGIS,VIYSDGRRTFYGDQVK,GETAGTFDS,0.78 0.60 0.17 0.25 0.30 0.61,0.45,1 of 18 (2.30)
GFSLNSYGIS,VIYSDGCRTFYTDSVK,GNAAGTFDS,0.88 1.55 0.12 0.16 0.97 0.91,0.77,0 of 18
GFNLNSYGIS,VIYSDGRRTFYLDSVK,GQAAGTFDS,nd nd 1.72 1.78 1.70 1.79,1.75,0 of 18
GFSLNSYGIS,VIYSDGRRTFYGDSVK,GNAAGTFDW,nd nd 1.20 nd 0.38 nd,0.79,0 of 18
GFDLNSYGIS,VIYSDGRRTFYGDAVK,GKEAGTFDS,-0.04 -0.10 -0.22 -0.34 -0.52 -0.11,-0.22,0 of 18
GFDLNSYGIS,VIYSDGQRTFYVDSVK,GRLAGTFDS,nd -0.85 -0.28 -0.39 0.52 -0.30,-0.26,0 of 18
GFGLNSYGIS,VIYSDGRRTFYADSVK,GKQAGTFDS,-0.08 -0.31 0.44 -0.52 -0.30 -0.04,-0.13,0 of 18
GFLLNSYGIS,VIYSDGRRTFYADSVK,GKEAGTFDT,nd 0.84 0.44 0.67 nd nd,0.65,0 of 18
GFTLNSYGIS,VIYSDGRRTFYADRVK,GQTAGTFDK,2.20 1.86 1.41 1.64 1.87 1.56,1.76,0 of 18
GFTLNSYGIS,VIYSDGRRTFYIDDVK,GQAAGTFDV,1.14 0.85 1.22 1.18 0.99 1.17,1.09,0 of 18
GFELNSYGIS,VIYSDGRRTFYQDHVK,GKTAGTFDS,2.23 nd 1.33 nd 2.77 1.28,1.90,0 of 18
GFNLNSYGIS,VIYSDGRRTAYGDAVK,GRNAGTFDS,0.09 -0.25 -0.64 -0.32 -0.08 -0.40,-0.27,0 of 18
GFTLNSYGIS,VIYSDGRRTFYGDSVK,GMEAGTFDK,0.81 1.35 0.93 1.72 1.05 2.28,1.36,0 of 18
GFNLNSYGIS,VIYSDGRRTFYGDSVK,GRAAATFDS,nd nd nd nd nd nd,nd,0 of 18
GFGLNSYGIS,VIYSDGRRTFYADRVK,GWTAGTFDS,1.74 1.24 1.46 1.60 1.09 1.16,1.38,1 of 18 (3.28)
GFTLDSYGIS,VIYSDGRRTFYSDRVK,GRTAGTFDT,0.45 0.32 0.14 0.00 0.47 0.06,0.24,0 of 18
GFDLNSYGIS,VIYSDGRRTFYADWVK,GQAAGTFDS,1.63 0.78 1.29 1.10 0.78 1.46,1.17,0 of 18
GFTLNSYGIS,VIYSDGRRTFYSDAVK,GKEAGTFDS,-0.25 1.04 0.03 0.31 0.42 1.02,0.43,0 of 18
GFVLNSYGIS,VIYSDGRRTFYADQVK,GRTAGTFDS,1.24 0.90 0.94 1.79 nd 0.95,1.16,0 of 18
SFDLNSYGIS,VIYSDGRRTFYGDSVK,GRTAGTFDA,nd 0.76 0.24 1.90 0.47 0.75,0.83,0 of 18
GFTLNSYGIS,VIYSDGKRTFYIDSVK,GQAAGTFDV,nd nd 1.09 nd 1.15 nd,1.12,0 of 18
GFSLNSYGIS,VIYSDGRRTFYIDHVK,GQAAGTFDS,nd nd 1.48 2.18 nd 2.09,1.92,0 of 18
GFDLNSYGIS,VIYSDGRRTFYGDKVK,GQTAGTFDD,0.22 0.37 0.15 0.23 0.23 0.33,0.25,0 of 18
GFQLNSYGIS,VIYSDGRRTFYGDSVK,GWVAGTFDT,1.81 0.81 0.81 1.29 1.09 1.42,1.21,0 of 18
GFGLKSYGIS,VIYADGRRTFYGDSVK,GKAAGTFDS,1.07 1.16 0.86 1.17 1.04 1.20,1.08,0 of 18
GFTLESYGIS,VIYSDGKRTFYGDSVK,GRQAGTFDS,1.35 1.39 1.41 1.22 1.12 1.08,1.26,2 of 18 (2.33)
GFDLNSYGIS,VIYSDGRRTFYGDRVK,GKTAGTFDA,1.15 0.94 0.82 1.39 1.05 0.59,0.99,1 of 18 (1.69)
GFSLENYGIS,VIYSDGRRTFYGDQVK,GRTAGTFDS,0.69 0.96 0.42 0.39 1.51 1.07,0.84,0 of 18
GKTLNSYGIS,VIYSDGRRTFYGDSVK,GQTAGTFDV,nd nd nd nd nd nd,nd,0 of 18
SFNLNSYGIS,VIYSDGRRTFYGDSVK,GQTAGTFDS,nd nd nd nd nd nd,nd,1 of 18 (1.94)
KFTLNSYGIS,VIYSDGRRTFYRDSVK,GQTAGTFDS,nd 2.44 2.14 nd nd nd,2.29,0 of 18
GFNLNSYGIS,VIYSDGRRTFYADSVK,GRAAGTFDT,0.90 1.13 0.66 1.06 1.30 2.73,1.30,0 of 18
GFTLNSYGIS,VIYSDGRRTFYIDSVK,GRVAGTFDK,nd nd nd nd nd nd,nd,0 of 18
GFQLNEYGIS,VIYSDGRRTFYQDSVK,GQAAGTFDK,0.25 0.44 0.33 0.43 0.50 0.32,0.38,0 of 18

The 4 strongest on average among those seen in every replicate, once more:

CDR-H1,CDR-H2,CDR-H3,"log10 Kd, replicates",mean log10 Kd (nM),control signals
GFNLNSYGIS,VIYSDGRRTAYGDAVK,GRNAGTFDS,0.09 -0.25 -0.64 -0.32 -0.08 -0.40,-0.27,0 of 18
GFDLNSYGIS,VIYSDGRRTFYGDAVK,GKEAGTFDS,-0.04 -0.10 -0.22 -0.34 -0.52 -0.11,-0.22,0 of 18
GFGLNSYGIS,VIYSDGRRTFYADSVK,GKQAGTFDS,-0.08 -0.31 0.44 -0.52 -0.30 -0.04,-0.13,0 of 18
GFTLDSYGIS,VIYSDGRRTFYSDRVK,GRTAGTFDT,0.45 0.32 0.14 0.00 0.47 0.06,0.24,0 of 18

Three control strains display no target. For all heavy chain designs, 1% of the pairings with them gave a signal, with a median of 2.08 and one signal in twenty below 0.84, so weak values seen in few replicates may be background. The control count says in how many pairings with the empty strains this scFv gave a signal, with their mean in brackets.
The authors averaged sequences with at least three values out of six and counted those with two or fewer as poor binders.
The range of this assay differs from that of the first round, and the authors advise against merging the two.

Data: MIT Lincoln Laboratory AlphaSeq set, Li et al. 2023, doi:10.1038/s41467-023-39022-2, as distributed in FLAb.